Assay results taken from US12570750B2, “Antibodies that bind adenosine A2A receptors and methods of use thereof to treat cancer and neurological diseases” (Twist Bioscience Corporation, priority 2019, dated 2026).

Tests used:
[1] = molecular target: T1, adenosine A2A receptor (Homo sapiens, UniProt P29274); experiment: A2A cAMP antagonist titration: fixed 100 nM IgG, then NECA titration; type: cell-based; details: Table 9
Description: Buffer was PBS+0.1% BSA+0.5 mM IBMX.
A2A-9 was assayed as described in Example 15.

[2] = molecular target: T1, adenosine A2A receptor; experiment: LANCE allosteric cAMP assay: titrated IgG, then fixed NECA concentration; type: cell-based; details: Table 10
Description: A2A-1 and A2A-9 were assayed for allosteric modulation.
A2A-9 was assayed as described in Example 16.

B1: A2A-1: A2AR variant immunoglobulin, CDRH1-3 SEQ ID NOs 6/95/184 (antibody, V domains shown)
VH: QVQLQESGPGLVKPSGTLSLTCAVSGGSISSSNWWSWVRQPPGKGLEWIGEIYPSGNTYYNPSLKSRVTISVDKSKNQFSLKLNSVTAADTAVYYCARDEGYWGQGTLVTVSS
VL: [about 100 residues omitted]RTFGQGTKVDIK
Functional classification from NECA titration [1]: negative allosteric modulator | Functional classification from IgG titration [2]: negative allosteric modulator
